## Ab-14 heavy chain CDR variants: yeast mating affinities

From the AlphaSeq antibody data of Engelhart et al. 2022 (doi:10.1038/s41597-022-01779-4), copy in the FLAb collection.

Target peptide (SARS-CoV-2 spike, HR2 region): PDVDLGDISGINAS

Each scFv is VH, a 15-residue (Gly4Ser)3 linker, VL, as in the parent Ab-14, and differs from it in the CDRs of the heavy chain only.
VH: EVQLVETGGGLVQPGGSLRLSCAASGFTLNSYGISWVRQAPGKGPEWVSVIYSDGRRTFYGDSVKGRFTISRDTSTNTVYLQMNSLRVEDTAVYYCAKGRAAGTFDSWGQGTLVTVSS
VL: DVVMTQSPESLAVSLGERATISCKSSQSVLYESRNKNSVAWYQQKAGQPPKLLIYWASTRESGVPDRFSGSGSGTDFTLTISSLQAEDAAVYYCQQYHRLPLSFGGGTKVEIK

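The parent was found by panning a naive human phage display library on the peptide. AAYL49 was designed without a model: most single CDR substitutions and a random sample of double and triple ones. The assay is AlphaSeq: two haploid yeast populations carry antibody and antigen on their surface. After mating in shaken culture at 30 °C for 16 h, diploids were selected and their barcode pairs sequenced. Each replicate has its own calibration line, from reference interactions of the BCL2 family. Mating was done three times.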

Each variant is given by its three heavy chain CDRs, as the data file delimits them; those of the parent are GFTLNSYGIS, VIYSDGRRTFYGDSVK, GRAAGTFDS.
Scale: log10 of Kd in nM, estimated from mating counts; low values are strong binders.
An entry "nd" has no value in the source: the pair was not observed among the diploids in that replicate. This suggests poor binding but is not conclusive.

| CDR-H1 | CDR-H2 | CDR-H3 | log10 Kd (nM) by replicate | signal with controls |
|---|---|---|---|---|
| GFTLNSYGIS | VNYSDGRRTPYGDSVK | GRAACTFDS | nd / nd / nd | 0 of 9 |
| GFTLNSYGIS | VIYSDGRRTFYGDSVK | GVAAQTFDS | 1.55 / 1.43 / 1.57 | 3 of 9 (4.20) |
| GFTLNSYGIS | VCYSDGRRTFYGDSMK | DRAAGTFDS | 2.76 / nd / 3.93 | 0 of 9 |
| GFTLNSYGIS | VIYSDGRRTFYGDSVK | GRAMWSFDS | nd / nd / nd | 0 of 9 |
| GFTHNSYGIS | VIYSDGRRTFDFDSVK | GRAAGTFDS | nd / nd / nd | 0 of 9 |
| GFTLNSYGIS | VIYSDGRRPFYGDSVK | GRQAGTFDS | nd / nd / nd | 0 of 9 |
| GFTLNSYGIH | VIYSDGCRTFVGDSVK | GRAAGTFDS | 5.20 / nd / 5.60 | 7 of 9 (4.91) |
| RFTLNSYGIS | VIYSDGRRTFYTDSVK | GRAAGSFDS | 1.47 / 1.95 / 1.47 | 0 of 9 |
| GFTLMSYGIC | VILSDGRRTFYGDSVK | GRAAGTFDS | nd / nd / nd | 2 of 9 (3.76) |
| GFTLNSYGIS | VIYSDGRRTFYGDSVT | GRVAGTFVS | 4.96 / nd / 4.31 | 4 of 9 (4.10) |
| GFTLNSCPIS | VIYSDGRRTFYGDSVK | GFAAGTFDS | nd / nd / nd | 0 of 9 |
| GFTHNSYGIS | VIYSDKRGTFYGDSVK | GRAAGTFDS | nd / nd / nd | 1 of 9 (2.67) |
| GFTLNSYGIS | VIYSDGRRTFKGDSVK | GRKAGTFDS | nd / nd / nd | 0 of 9 |
| GFTLNSYGIS | VIYSDGRRTFYGDSVK | GRAAVTFDS | nd / nd / nd | 4 of 9 (3.74) |
| GFTLNVYGIS | VIYSDGRRTFYADSVK | GHAAGTFDS | nd / nd / nd | 1 of 9 (3.23) |
| GFTLNHYGPS | VNYSDGRRTFYGDSVK | GRAAGTFDS | nd / nd / nd | 0 of 9 |
| GFTLNSYGIS | VIYVDGRRTFYGDSVK | GDAWGTFDS | nd / nd / nd | 0 of 9 |
| GFTLNSYGIS | LIYSDGRRTFGGRSVK | GRAAGTFDS | nd / nd / nd | 0 of 9 |
| GFTLNSYGIS | VIYHDGRRTFYGYSVK | GRAAGTFDD | nd / nd / nd | 1 of 9 (3.46) |
| GFTLNSYGIS | VIYSIGRRFFYGDSVK | GRYAGTFDS | nd / nd / nd | 0 of 9 |
| GFTLNYYMIS | VISSDGRRTFYGDSVK | GRAAGTFDS | nd / nd / nd | 0 of 9 |
| GFTHNSYVIS | VIYSDGRRTFYGDSVK | GRAAGTFLS | nd / nd / nd | 0 of 9 |
| GFWLNSYGIP | VIYSDGRRTFYGDSVK | GRAAGTFFS | nd / nd / nd | 0 of 9 |
| GFTLNSYGIS | VFYSDGRRTFTGDSVK | GRAAGTFDS | nd / 5.07 / 2.82 | 3 of 9 (3.61) |
| GMCLNSYGIS | VIYYDGRRTFYGDSVK | GRAAGTFDS | nd / nd / nd | 0 of 9 |
| GFTLNSYGIS | VIYSDGRRTFYGDLVK | GRAAGTFDS | nd / nd / 3.63 | 1 of 9 (3.13) |
| GFTKNSYGIS | VIYSMGRRTFYGDSVK | GRAAGTFDS | 3.80 / nd / nd | 5 of 9 (3.95) |
| GFTLNSYGIS | VIYSDGRRDFYGDSVK | GRAAGTFLS | 2.43 / nd / 2.34 | 0 of 9 |
| GFTLNLYGIS | VIYSDGRRTFYGDSCK | GRAAGTFDS | 2.88 / 3.43 / nd | 0 of 9 |
| GFTLNSYGIS | VIYSDGCLTFYGDSVK | GRAAGNFDS | nd / 5.25 / 3.81 | 4 of 9 (5.22) |
| GFTWNSYGIM | CIYSDGRRTFYGDSVK | GRAAGTFDS | nd / nd / nd | 0 of 9 |
| GFTLNSYGIS | HIYSDNKRTFYGDSVK | GRAAGTFDS | 6.03 / nd / 4.19 | 1 of 9 (4.01) |
| GFTLNSYGIS | VIYSDGRRTFYGDSVV | GRAAGTFDS | 1.74 / 2.17 / 1.86 | 0 of 9 |
| GFTLNMYYIS | VIYSMGRRTFYGDSVK | GRAAGTFDS | nd / nd / nd | 0 of 9 |
| GFTLNSYGIS | VIYSDGRRTFYGFSVM | GRAAGRFDS | nd / nd / nd | 1 of 9 (4.31) |
| GFTLNSSGIN | VIYSDGRRTFYGDSVK | ARAAGTFDS | 5.17 / 3.14 / nd | 2 of 9 (4.39) |
| GFTLCSYQIS | VIYSDGRRTFYGDQVK | GRAAGTFDS | nd / nd / nd | 3 of 9 (3.20) |
| GFTLVSYGIS | VSYSDGRRTFYGDSVK | GRAPGTFDS | nd / 2.83 / 3.21 | 0 of 9 |
| GFTLNSYGIS | VIYSDGRRTFYGDSAK | GRAAETFDD | 1.54 / 1.65 / 0.78 | 0 of 9 |
| GFTLNSYGIS | VIYSDFRRTGYGDSVK | GRLAGTFDS | nd / nd / nd | 3 of 9 (3.34) |
| GFTLNSYGIS | VIYSDGRRTFYGDSYM | GRADGTFDS | nd / nd / nd | 0 of 9 |

Picked from the list: the 4 lowest averages where every replicate gave a value.

| CDR-H1 | CDR-H2 | CDR-H3 | log10 Kd (nM) by replicate | signal with controls |
|---|---|---|---|---|
| GFTLNSYGIS | VIYSDGRRTFYGDSAK | GRAAETFDD | 1.54 / 1.65 / 0.78 | 0 of 9 |
| GFTLNSYGIS | VIYSDGRRTFYGDSVK | GVAAQTFDS | 1.55 / 1.43 / 1.57 | 3 of 9 (4.20) |
| RFTLNSYGIS | VIYSDGRRTFYTDSVK | GRAAGSFDS | 1.47 / 1.95 / 1.47 | 0 of 9 |
| GFTLNSYGIS | VIYSDGRRTFYGDSVV | GRAAGTFDS | 1.74 / 2.17 / 1.86 | 0 of 9 |

Three control strains display no target. For library AAYL49, 15% of the pairings with them gave a signal, with a median of 4.06 and one signal in twenty below 2.83, so weak values seen in few replicates may be background. For each scFv, signals with the empty controls are counted beside the result, with their mean in brackets.